This passage reports Ki results from ChEMBL document CHEMBL1138948, “Design, synthesis, and evaluation of proline and pyrrolidine based melanocortin receptor agonists. A conformationally restricted dipeptide mimic approach” (J Med Chem, 2006).

Protein sequences, listed by entry. Tags and fused reporters are not part of them.
UniProt P32245, whole entry: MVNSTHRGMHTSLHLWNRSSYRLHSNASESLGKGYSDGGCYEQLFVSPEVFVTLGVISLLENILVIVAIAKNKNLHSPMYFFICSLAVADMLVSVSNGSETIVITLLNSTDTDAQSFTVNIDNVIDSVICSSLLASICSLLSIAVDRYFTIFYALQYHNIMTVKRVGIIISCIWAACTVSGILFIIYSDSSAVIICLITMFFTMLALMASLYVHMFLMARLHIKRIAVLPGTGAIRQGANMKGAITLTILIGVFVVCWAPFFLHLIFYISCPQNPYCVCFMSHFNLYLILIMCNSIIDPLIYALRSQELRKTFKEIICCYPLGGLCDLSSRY

Each structure is given as a SMILES string.

In the experiment the target is Melanocortin receptor 4 (Homo sapiens, UniProt P32245). Description: Displacement of europium labeled NDP-alpha-MSH from human MC4R expressed in HEK293 cells. The experiment is classed as cell-based.

A word on the Ki: it is the equilibrium dissociation constant of an inhibitor or competing ligand from its target. On to `CC(=O)N[C@@H](Cc1c[nH]cn1)C(=O)N[C@@H](Cc1ccccc1)C(=O)N[C@@H](CCCN=C(N)N)C(=O)N[C@@H](Cc1c[nH]c2ccccc12)C(N)=O`, for which the inhibition constant Ki is 0.246 µM.
